Earlier results in PMC9510668 (Frontiers in Pharmacology, 2022).

Conditions: ref [1]; cited from earlier work

CC(=O)N1CCN(c2ccc(OCC3COC(Cn4ccnc4)(c4ccc(Cl)cc4Cl)O3)cc2)CC1 (stereo not shown) [ketoconazole]
Peff, human permeability: 1.24 ?10^-5 cm·s^-1
